# Experimental properties from OPERA 2.9

Melting points are in °C. Boiling points are in °C, nominally at 760 mmHg. logP is the log10 of the octanol-water partition coefficient; higher is more lipophilic. Water solubility is log10 of mol/L, nominally at 25 °C; higher is more soluble. Vapor pressures (log10 mmHg) refer to near room temperature, 15 to 30 °C; higher is more volatile. Henry's law constant (air-water partitioning) is log10 of atm·m3/mol, nominally at 25 °C. The unbound fraction in human plasma runs from 0 (all bound) to 1 (all free). Clint is human hepatic intrinsic clearance in µL/min per million cells; 0 means that no clearance was seen. "–" marks a cell with nothing listed here.

MP (°C),boiling point (°C),logP (octanol/water),log solubility (log10 mol/L),log vapor pressure (log10 mmHg),Henry's law constant (log10 atm·m3/mol),fu,hepatic Clint (µL/min/10^6 cells),compound,name
–,–,4.3,-4.273,1.194,–,–,–,C=C[Si](C=C)(C=C)C=C,"Silane, tetraethenyl-"
–,216.8,0.74,–,–,–,–,–,CCCCCO[C@@H]1O[C@@H](C)[C@H](O)[C@@H](O)[C@H]1O,Pentyl 6-deoxy-alpha-L-mannopyranoside
–,–,2.1,-2.747,-5.673,–,–,–,Cc1ccc(NCCO)c([N+](=O)[O-])c1,Hydroxyethyl-2-nitro-p-toluidine
149,511.3,–,–,–,–,–,–,O=c1sn(-c2cccc3ccccc23)c(=O)n1Cc1ccccc1,Tideglusib
–,–,–,-6.821,-7.033,–,–,–,[N-]=[N+]=C1C=Cc2c(cccc2S(=O)(=O)Oc2ccc(C(=O)c3ccccc3)c(OS(=O)(=O)c3cccc4c3C=CC(=[N+]=[N-])C4=O)c2OS(=O)(=O)c2cccc3c2C=CC(=[N+]=[N-])C3=O)C1=O,–
165,–,1.666,-3.75,–,–,–,–,O=C(Nc1ccccc1)NS(=O)(=O)Nc1ccccc1,–
240.1,–,4.1,–,-8.012,–,–,–,COc1ccc2c(O[C@@H]3C[C@H]4C(=O)N[C@]5(C(=O)O)C[C@H]5C=CCCCCN(C)C(=O)[C@@H]4C3)cc(-c3nc(C(C)C)cs3)nc2c1C,–
–,–,–,-6.272,-5.782,–,–,–,CCC[C@H]1CC[C@H](c2ccc(-c3ccc(B(O)O)c(F)c3)cc2)CC1,–
–,–,3.71,–,-0.715,–,–,–,C=CC(C)(CCC=C(C)C)OC=O (centres undefined),Linalyl formate
157.7,–,2.6,-4.123,–,–,–,–,Cc1ccc(S(=O)(=O)NC(=O)Nc2cccc(OS(=O)(=O)c3ccc(C)cc3)c2)cc1,Pergafast 201
-60.5,–,–,-2.989,-1.046,–,–,–,CC(C)c1ccc(C#N)cc1,4-Isopropylbenzonitrile
4,–,3.66,-3.138,-1.62,–,–,–,C/C=C/C(=O)C1C(C)=CCCC1(C)C (stereo partly drawn),"(2E)-1-(2,6,6-Trimethyl-2-cyclohexen-1-yl)-2-buten-1-one"
201,–,-1.471,-1.938,-8.493,–,–,–,Cc1nn(C)c(O)c1C(O)c1ccc(C(F)(F)F)cc1S(C)(=O)=O (centres undefined),Pyrasulfotole
–,–,2.25,-3.646,–,–,–,–,Nc1ccc(CCc2ccc(N)cc2)cc1,"Benzenamine, 4,4'-(1,2-ethanediyl)bis-"
–,–,2.27,–,-10.48,–,–,–,CCCCCCCCCCCOC1O[C@@H](CO)[C@H](O)[C@@H](O)[C@@H]1O (stereo partly drawn),Undecyl glucoside
79.8,–,–,–,-7.782,–,–,–,CC(=O)[O-].CC[P+](c1ccccc1)(c1ccccc1)c1ccccc1,Ethyltriphenylphosphonium acetate
–,235.2,2.4,-2.856,-0.248,–,–,–,CCC1(O)CCCC1CCC(C)C (centres undefined),"Cyclopentanol, 1-ethyl-2-(3-methylbutyl)-"
–,–,2.5,-2.443,–,–,–,–,C=C(C)C(=O)OCCNC(=O)n1nc(C)cc1C,–
-25.65,–,–,-1.939,-0.399,-4.339,–,–,CC1=CCC(O)(C(C)C)CC1 (centres undefined),4-Methyl-1-(propan-2-yl)cyclohex-3-en-1-ol
–,–,0.461,–,-3.87,–,–,–,O=C1CCCC(=O)C1,"1,3-Cyclohexanedione"
–,–,2.3,-3.144,-5.094,–,–,–,CCOc1ccc(B(O)O)c(F)c1F,"(4-Ethoxy-2,3-difluorophenyl)boronic acid"
–,–,–,–,–,–,0.1801,8.516,C=Cc1ccccc1,Styrene
–,–,-0.11,-7.42,–,–,–,–,O=c1c2cc(Cl)ccc2[nH]c2cc3c(=O)c4cc(Cl)ccc4[nH]c3cc12,"2,9-Dichloro-5,12-dihydroquino[2,3-b]acridine-7,14-dione"
44,–,7.64,–,–,–,–,–,CCCCCC/C=C/CCCCCCCCCC(=O)O,Vaccenic acid
–,–,1.15,–,-1.025,–,–,–,CC(S)C(=O)O (centres undefined),"Propanoic acid, 2-mercapto-"
–,–,1.99,–,-0.91,–,–,–,CN(C)CCCCCCN(C)C,"N,N,N',N'-Tetramethyl-1,6-hexanediamine"
113,–,1.42,-2.719,-4.543,–,–,–,COc1cc(C#N)ccc1C=O,4-Formyl-3-methoxybenzonitrile
52,–,3.55,-3.218,-4.238,–,–,–,CC(C)[C@@H]1CC[C@@H](C)C[C@H]1OC(=O)OCCO,Menthyl glycol carbonate
8.51,–,–,-3.117,-1.289,–,–,–,CCC(=O)OCCc1ccccc1,2-Phenylethyl propionate
–,–,4.01,-4.512,-1.534,–,–,–,CC/C=C\CCOC(=O)C/C=C\CC,"3-Hexenoic acid, (3Z)-3-hexen-1-yl ester, (3Z)-"
-28.2,–,-0.11,–,-0.803,–,–,–,C=CNC=O,"Formamide, N-ethenyl-"
192.5,–,-2.37,–,–,–,–,–,CCOc1ccc(S(=O)(=O)N2CCN(C)CC2)cc1C(=O)O,2-Ethoxy-5-(4-methylpiperazine-1-sulfonyl)benzoic acid
189.3,–,1.24,-3.239,-9.684,–,–,–,O=c1[c-](-c2cccc(C(F)(F)F)c2)c(=O)[n+]2ccccc2n1Cc1cncnc1,Triflumezopyrim
148.2,–,–,-7.233,-4.824,–,–,–,CNc1ccc(Nc2cccc(C)c2)c2c1C(=O)c1ccccc1C2=O,–

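The OPERA project collected these measurements from public sources as training and test data for property models. The files give a single number for a compound and property, which may rest on several reports. How each value was measured is not recorded, so precision varies. Where a salt, mixture or single isomer is drawn, the source does not say that exactly this form was tested. Some upstream entries may be estimates or bounds without being marked so.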

Data: OPERA 2.9 data sets, kmansouri/OPERA on GitHub.